Assay results reported in patent US8030354B2, “Substituted biphenyl GPR40 modulators” (Amgen Inc., priority 2007, dated 2011).

By UniProt entry, the sequences of proteins in these tests, tags left out.
UniProt O14842, whole entry: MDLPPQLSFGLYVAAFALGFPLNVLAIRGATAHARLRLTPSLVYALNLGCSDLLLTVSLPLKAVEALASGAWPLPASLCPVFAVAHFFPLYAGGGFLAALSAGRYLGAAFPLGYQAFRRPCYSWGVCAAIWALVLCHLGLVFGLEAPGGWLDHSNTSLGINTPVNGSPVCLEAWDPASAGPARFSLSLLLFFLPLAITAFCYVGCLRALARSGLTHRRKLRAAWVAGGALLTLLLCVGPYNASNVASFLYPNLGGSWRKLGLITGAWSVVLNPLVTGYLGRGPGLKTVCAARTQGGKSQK

Experiments:
GPR40 [1] = target: T1, GPR40 (Homo sapiens, UniProt O14842); experiment: Inositol phosphate accumulation assay (A9_GPR40 cells); format: cell-based; settings: read-out: IP3 EC50, 1 hour
GPR40 [2] = target: T1, GPR40; experiment: Cell-based aequorin assay (CHO cells stably expressing GPR40 and aequorin); settings: read-out: Aequorin EC50; activation of human GPR40, CHO cells, 0.01% HSA

Row | Compound | EC50 (GPR40 [1]) [nM] | EC50 (GPR40 [2]) [nM]
1 | COc1ccc(F)c(-c2ccc(COc3cccc(C(C)CC(=O)O)c3)cc2C(C)(C)C)c1 (single isomer, unassigned) [Example 42, (3R)-3-(3-(((2-(1,1-Dimethylethyl)-2′-fluoro-5′-(methyloxy)-1,1′-biphenyl-4-yl)methyl)oxy)phenyl)butanoic acid or (3S)-3-(3-(((2-(1,1-dimethylethyl)-2′-fluoro-5′-(methyloxy)-1,1′-biphenyl-4-yl)methyl)oxy)phenyl)butanoic acid] | 1000 to 10000 | 1000 to 10000
2 | CCCC(CC(=O)O)c1cccc(OCc2ccc(-c3cc(OC)ccc3F)c(C(C)(C)C)c2)c1 (stereo not drawn) | 100 to 1000 | 100 to 1000
3 | COc1ccc(F)c(-c2ccc(COc3cccc(C(CC(=O)O)C4CC4)c3)cc2C2CCCC2C)c1 (single isomer, unassigned) | < 10 | 100 to 1000
4 | C=CCC(CC(=O)O)c1cccc(OCc2ccc(-c3cc(OC)ccc3F)c(C(C)(C)C)c2)c1 (stereo not drawn) |  | 1000 to 10000
5 | C=C(C)C(CC(=O)O)c1cccc(OCc2ccc(-c3cc(OC)ccc3F)c(C(C)(C)C)c2)c1 (stereo not drawn) | 100 to 1000 | 100 to 1000
